Earlier results on 1 molecule are cited in US12637432B2, “Inhibitors of ACK1/TNK2 tyrosine kinase” (H. LEE MOFFITT CANCER CENTER AND RESEARCH INSTITUTE, INC., priority 2020, dated 2026).

For the data set the following is noted: mouse models; cited from earlier work.

For `COc1cc(Oc2ccccc2)ccc1-c1nc(C2CC(C)(O)C2)n2ccnc(N)c12` (stereo not shown), the oral bioavailability entry is recorded as “orally bioavailable”.
